Test results: patent US9743676B2, “Pesticidal compositions comprising a solid insecticide and an essential oil” (AirRx Antimicrobial Sciences Inc., priority 2015, dated 2017)

Tested on: adult bed bugs resistant strain (UMC) colony
Test: Contact lethal time of pyrethroids and rosemary oil on treated filter paper, Example 4
Assay type: in vivo, bed bug
Conditions: rate 0.01 % by weight
Procedure: The control is 100 μL […]. Filter paper was then placed on top of the solution.

CC(C)=CC1C(C(=O)OCc2coc(Cc3ccccc3)c2)C1(C)C (centres unmarked) [Resmethrin, resmethrin]
LT50: 31.94 min
LT95: 417.12 min
